{
  "sequences": {"note": "Sequences of proteins named here, by UniProt entry; tags and fusion partners are left off.", "UniProt O15530, whole entry": "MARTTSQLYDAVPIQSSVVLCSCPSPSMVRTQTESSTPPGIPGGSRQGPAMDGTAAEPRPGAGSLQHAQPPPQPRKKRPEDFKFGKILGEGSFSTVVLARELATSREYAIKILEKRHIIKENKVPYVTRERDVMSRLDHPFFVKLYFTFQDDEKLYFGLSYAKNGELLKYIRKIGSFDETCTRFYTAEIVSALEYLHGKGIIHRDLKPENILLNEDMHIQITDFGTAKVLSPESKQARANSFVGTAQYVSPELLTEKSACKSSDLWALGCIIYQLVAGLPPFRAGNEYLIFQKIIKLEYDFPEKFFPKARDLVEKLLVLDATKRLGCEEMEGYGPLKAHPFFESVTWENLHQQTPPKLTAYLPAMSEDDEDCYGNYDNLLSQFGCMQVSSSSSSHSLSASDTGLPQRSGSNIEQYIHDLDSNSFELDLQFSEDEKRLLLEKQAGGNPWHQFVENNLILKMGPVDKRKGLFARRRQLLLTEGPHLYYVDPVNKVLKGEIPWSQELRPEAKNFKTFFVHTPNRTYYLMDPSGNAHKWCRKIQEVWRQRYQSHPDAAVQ", "UniProt P31749, whole entry": "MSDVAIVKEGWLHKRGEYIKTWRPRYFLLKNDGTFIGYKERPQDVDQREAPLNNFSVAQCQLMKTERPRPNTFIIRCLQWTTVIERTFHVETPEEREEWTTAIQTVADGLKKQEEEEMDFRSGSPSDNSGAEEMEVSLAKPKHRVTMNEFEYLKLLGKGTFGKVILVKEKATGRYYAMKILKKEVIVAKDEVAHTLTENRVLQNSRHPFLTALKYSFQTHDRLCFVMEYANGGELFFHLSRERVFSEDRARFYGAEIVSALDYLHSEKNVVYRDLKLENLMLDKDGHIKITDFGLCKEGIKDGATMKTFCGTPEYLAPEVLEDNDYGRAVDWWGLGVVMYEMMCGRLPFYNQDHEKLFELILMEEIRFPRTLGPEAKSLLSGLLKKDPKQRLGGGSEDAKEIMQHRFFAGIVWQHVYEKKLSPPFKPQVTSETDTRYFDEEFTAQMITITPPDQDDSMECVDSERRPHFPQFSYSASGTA", "UniProt Q12809, whole entry": "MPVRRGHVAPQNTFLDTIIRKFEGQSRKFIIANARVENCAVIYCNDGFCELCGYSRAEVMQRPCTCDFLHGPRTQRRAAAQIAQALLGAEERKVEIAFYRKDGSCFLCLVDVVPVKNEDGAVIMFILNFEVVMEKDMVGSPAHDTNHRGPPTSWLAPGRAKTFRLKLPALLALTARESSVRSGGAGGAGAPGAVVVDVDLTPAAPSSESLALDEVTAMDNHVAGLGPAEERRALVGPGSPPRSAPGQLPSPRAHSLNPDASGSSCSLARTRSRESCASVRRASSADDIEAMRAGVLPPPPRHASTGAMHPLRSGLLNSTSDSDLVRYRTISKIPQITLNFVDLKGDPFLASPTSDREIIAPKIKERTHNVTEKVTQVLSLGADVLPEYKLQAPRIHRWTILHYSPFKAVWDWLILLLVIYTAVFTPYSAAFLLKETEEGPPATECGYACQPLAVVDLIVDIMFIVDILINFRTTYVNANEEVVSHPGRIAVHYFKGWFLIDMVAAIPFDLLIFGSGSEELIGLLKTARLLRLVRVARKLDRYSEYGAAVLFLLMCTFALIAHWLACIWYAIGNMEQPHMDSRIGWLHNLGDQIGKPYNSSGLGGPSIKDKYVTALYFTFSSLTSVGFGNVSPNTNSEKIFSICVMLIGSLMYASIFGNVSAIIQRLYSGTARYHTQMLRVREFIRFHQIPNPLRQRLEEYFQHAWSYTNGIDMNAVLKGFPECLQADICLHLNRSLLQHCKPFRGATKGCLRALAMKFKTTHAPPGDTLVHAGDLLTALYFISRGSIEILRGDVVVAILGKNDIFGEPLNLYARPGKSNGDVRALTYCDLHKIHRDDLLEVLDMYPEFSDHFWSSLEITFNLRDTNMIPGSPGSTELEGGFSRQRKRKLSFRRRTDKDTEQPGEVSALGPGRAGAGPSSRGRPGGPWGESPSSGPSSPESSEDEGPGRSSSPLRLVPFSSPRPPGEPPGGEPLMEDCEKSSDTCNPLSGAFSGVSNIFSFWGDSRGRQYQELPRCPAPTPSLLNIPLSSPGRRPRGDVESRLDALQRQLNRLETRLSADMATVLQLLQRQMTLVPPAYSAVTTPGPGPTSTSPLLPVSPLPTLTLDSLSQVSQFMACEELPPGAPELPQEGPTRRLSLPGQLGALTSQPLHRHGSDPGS", "UniProt O75914, whole entry": "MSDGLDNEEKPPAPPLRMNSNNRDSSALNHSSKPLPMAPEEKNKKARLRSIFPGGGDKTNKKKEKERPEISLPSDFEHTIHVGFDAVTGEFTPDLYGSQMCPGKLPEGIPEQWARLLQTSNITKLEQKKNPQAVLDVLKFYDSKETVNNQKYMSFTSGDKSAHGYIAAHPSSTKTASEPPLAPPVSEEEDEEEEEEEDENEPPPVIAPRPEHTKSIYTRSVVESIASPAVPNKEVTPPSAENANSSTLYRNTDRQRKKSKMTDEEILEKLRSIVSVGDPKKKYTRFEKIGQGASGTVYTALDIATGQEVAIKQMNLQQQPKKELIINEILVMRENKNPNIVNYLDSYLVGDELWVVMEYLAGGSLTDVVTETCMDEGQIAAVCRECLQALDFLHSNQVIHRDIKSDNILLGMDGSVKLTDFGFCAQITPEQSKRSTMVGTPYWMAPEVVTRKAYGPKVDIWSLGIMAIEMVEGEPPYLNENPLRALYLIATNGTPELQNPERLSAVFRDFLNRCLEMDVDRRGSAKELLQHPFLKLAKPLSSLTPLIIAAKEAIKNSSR", "UniProt O96013, whole entry": "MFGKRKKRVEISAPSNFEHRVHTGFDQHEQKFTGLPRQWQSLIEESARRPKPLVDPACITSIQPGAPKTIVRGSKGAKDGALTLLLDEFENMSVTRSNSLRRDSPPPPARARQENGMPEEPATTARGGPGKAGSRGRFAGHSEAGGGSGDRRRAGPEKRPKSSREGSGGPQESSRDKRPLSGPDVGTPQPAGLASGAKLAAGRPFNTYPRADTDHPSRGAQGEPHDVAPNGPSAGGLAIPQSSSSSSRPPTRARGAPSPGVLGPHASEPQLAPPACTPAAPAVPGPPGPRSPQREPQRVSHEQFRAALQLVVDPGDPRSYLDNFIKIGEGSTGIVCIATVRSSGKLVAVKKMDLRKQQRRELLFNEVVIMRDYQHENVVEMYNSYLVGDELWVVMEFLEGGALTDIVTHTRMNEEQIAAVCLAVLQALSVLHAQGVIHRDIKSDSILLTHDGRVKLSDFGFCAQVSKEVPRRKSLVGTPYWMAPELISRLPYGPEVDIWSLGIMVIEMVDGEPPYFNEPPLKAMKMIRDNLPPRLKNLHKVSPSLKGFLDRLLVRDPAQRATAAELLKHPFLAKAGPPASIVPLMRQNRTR", "UniProt Q13177, whole entry": "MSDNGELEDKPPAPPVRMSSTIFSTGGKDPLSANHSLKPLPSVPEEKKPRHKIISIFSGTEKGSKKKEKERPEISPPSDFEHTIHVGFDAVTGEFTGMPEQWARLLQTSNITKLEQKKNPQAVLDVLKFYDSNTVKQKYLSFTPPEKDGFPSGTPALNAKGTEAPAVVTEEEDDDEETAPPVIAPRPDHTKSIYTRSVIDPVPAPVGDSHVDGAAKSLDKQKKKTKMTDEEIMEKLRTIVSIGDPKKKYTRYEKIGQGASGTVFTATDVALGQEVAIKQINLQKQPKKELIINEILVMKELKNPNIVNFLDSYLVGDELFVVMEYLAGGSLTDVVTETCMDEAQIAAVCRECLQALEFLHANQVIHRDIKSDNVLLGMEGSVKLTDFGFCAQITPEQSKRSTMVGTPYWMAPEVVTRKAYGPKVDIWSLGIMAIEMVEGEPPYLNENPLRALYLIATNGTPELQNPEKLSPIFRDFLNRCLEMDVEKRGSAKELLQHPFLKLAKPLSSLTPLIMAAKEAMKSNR", "UniProt Q13153, whole entry": "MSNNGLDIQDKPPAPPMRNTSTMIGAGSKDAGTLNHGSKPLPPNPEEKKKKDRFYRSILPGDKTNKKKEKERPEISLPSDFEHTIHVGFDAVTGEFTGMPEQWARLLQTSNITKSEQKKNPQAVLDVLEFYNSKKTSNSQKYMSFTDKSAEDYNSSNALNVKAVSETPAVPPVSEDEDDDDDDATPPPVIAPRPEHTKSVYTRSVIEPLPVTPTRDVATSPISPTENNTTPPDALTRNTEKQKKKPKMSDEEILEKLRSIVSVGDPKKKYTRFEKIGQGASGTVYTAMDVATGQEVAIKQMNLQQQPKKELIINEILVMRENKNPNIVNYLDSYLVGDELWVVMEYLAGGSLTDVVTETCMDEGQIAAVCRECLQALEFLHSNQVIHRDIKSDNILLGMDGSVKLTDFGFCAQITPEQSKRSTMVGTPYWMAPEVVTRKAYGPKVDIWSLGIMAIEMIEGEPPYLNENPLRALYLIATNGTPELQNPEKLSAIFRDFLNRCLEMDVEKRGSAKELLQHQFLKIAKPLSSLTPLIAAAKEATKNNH", "UniProt Q9P286, whole entry": "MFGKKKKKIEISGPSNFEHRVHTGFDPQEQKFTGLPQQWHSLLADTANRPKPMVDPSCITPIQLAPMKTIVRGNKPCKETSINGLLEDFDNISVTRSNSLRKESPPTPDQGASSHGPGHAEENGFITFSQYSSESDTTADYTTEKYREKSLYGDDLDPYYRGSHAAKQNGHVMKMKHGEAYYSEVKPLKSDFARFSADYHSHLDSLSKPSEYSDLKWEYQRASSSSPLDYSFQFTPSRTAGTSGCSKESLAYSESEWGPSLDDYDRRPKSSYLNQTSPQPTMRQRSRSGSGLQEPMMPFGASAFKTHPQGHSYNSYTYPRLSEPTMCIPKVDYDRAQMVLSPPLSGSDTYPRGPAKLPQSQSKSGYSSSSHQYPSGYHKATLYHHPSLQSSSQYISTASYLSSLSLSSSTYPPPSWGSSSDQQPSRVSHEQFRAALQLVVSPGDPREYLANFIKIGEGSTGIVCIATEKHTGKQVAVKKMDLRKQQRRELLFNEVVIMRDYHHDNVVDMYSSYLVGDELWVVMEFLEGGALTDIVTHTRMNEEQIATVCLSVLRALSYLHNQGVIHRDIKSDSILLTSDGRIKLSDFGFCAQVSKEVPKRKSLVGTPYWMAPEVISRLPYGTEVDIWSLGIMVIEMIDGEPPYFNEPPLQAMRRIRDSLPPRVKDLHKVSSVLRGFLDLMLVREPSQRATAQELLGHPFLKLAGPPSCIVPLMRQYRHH"},
  "source": "patent US20250195668A1",
  "origin": "cited, not measured here",
  "key": {"PDK1 [1]": {"molecular_target": "T1, PDK1 (Homo sapiens, UniProt O15530)", "conditions": "ITC; cited from earlier work"}, "PDK1 [2]": {"molecular_target": "T1, PDK1", "conditions": "cited from earlier work"}, "[3]": {"conditions": "cited from earlier work"}, "AKT1": {"molecular_target": "AKT1 (Homo sapiens, UniProt P31749)", "conditions": "cited from earlier work"}, "heRG": {"molecular_target": "heRG (Homo sapiens, UniProt Q12809)", "conditions": "cited from earlier work"}, "PAK3": {"molecular_target": "PAK3 (Homo sapiens, UniProt O75914)", "conditions": "read-out: PAK3 Kd; cited from earlier work"}, "PAK4": {"molecular_target": "PAK4 (Homo sapiens, UniProt O96013)", "conditions": "read-out: PAK4 Kd; cited from earlier work"}, "PAK2": {"molecular_target": "PAK2 (Homo sapiens, UniProt Q13177)", "conditions": "read-out: PAK2 Kd; cited from earlier work"}, "PAK1 [4]": {"molecular_target": "T2, PAK1 (Homo sapiens, UniProt Q13153)", "conditions": "read-out: PAK1 Kd; cited from earlier work"}, "PAK1 [5]": {"molecular_target": "T2, PAK1", "conditions": "read-out: PAK1 IC50; cited from earlier work"}, "PAK5": {"molecular_target": "PAK5 (Homo sapiens, UniProt Q9P286)", "conditions": "read-out: PAK5 Kd; cited from earlier work"}},
  "data": [
    {"compound": "O=C(O)/C=C(/CCc1ccc(Cl)c(Cl)c1)c1ccccc1", "values": [
      {"measurement": "Ki", "setting": "PDK1 [1]", "value": 71800, "unit": "M⁻¹"},
      {"measurement": "TΔS", "setting": "PDK1 [1]", "value": 2.80, "unit": "kcal/mol"},
      {"measurement": "Kinase activity assay Amax", "setting": "PDK1 [2]", "value": 2.4, "unit": "fold"}
    ]},
    {"compound": "O=C(Nc1ccc(OC(F)(F)F)cc1)c1cnc(N2CC[C@@H](O)C2)c(-c2cncnc2)c1", "values": [
      {"measurement": "logP", "setting": "[3]; second value of clogP/logP", "value": 3.5}
    ]},
    {"compound": "COc1ccccc1Cn1c(-c2cccnc2N)nc2cc(Br)cnc21", "values": [
      {"measurement": "Akt1 ΔTm", "setting": "AKT1", "value": "no shift"}
    ]},
    {"compound": "Cc1ncc(NC(=O)NC2c3ccccc3-c3ccccc32)c(-c2ccccc2)n1", "values": [
      {"measurement": "heRG dof. Binding I50", "setting": "heRG", "value": 0.31, "unit": "µM"},
      {"measurement": "Kd", "setting": "PAK3", "value": "> 4", "unit": "µM"},
      {"measurement": "Kd", "setting": "PAK4", "value": "> 4", "unit": "µM"},
      {"measurement": "Kd", "setting": "PAK2", "value": "> 4", "unit": "µM"},
      {"measurement": "Kd", "setting": "PAK1 [4]", "value": 130, "unit": "nM"},
      {"measurement": "IC50", "setting": "PAK1 [5]", "value": 190, "unit": "nM"},
      {"measurement": "Kd", "setting": "PAK5", "value": "> 4", "unit": "µM"},
      {"measurement": "pKa", "setting": "[3]", "value": 7.4}
    ]}
  ]
}
